Molecules are shown by their SMILES. pIC50: −log10 of the molar value. Some compounds may have been tested in ways that are not shown here. A value given as a limit tells only on which side of the number the result lay.

Assay [1] concerns clone 5 T cell hybridoma (DQ8 restricted T cell that responds to insulin B:9-23). Briefly: T cell stimulation assay, clone 5 T cell hybridoma with insulin B:9-23 peptide. As to conditions: read-out: T cell stimulation Assay Clone 5 & B:9-23 (IC50); IL-2 in supernatant after overnight culture; < means lower concentrations have not been used.
The next assay deals with DQ8 (Homo sapiens, UniProt P01909+P01920, A209T/A45G/C70Q/D89A/DUP78-78/E183D/E77G/F237L/G63E/H199R/I129T/K197E/L178F/L74F/L98V/Q57E/Q76R/S185I/S97I/T217I/T49S/V73L/Y58L). As to the kind of experiment: Competitive binding assay B:9-23 to DQ8. The following applies: >100 uM means some effect at 100 uM but not 50% inhibition; < means lower concentrations not used.

A word on the pIC50: it is −log10 of the IC50, conventionally taken in molar units. With `NN(CCCl)CCCl`, in assay [1], the pIC50 was more than 7.00. Also, the “Competitive Binding Assay B:9-23 to DQ8 (IC50)” value on DQ8 was “No inhibition”.
